# System: Rb phosphorylation at threonine 821 in Jurkat cells
# Settings: various concentrations, 36 hours prior to lysis, lysates normalized for total Rb, FIG. 12
structure (smiles),measurement,value
CN[C@@H]1C[C@H]2O[C@@](C)([C@@H]1OC)n1c3ccccc3c3c4c(c5c6ccccc6n2c5c31)C(=O)NC4 [staurosporine],Levels of Rb phosphorylation at threonine 821,inhibits the phosphorylation of Rb at threonine 821

# — patent US7888050B2, “Method for quantifying phosphokinase activity on proteins” (Life Technologies Corporation, priority 2000, dated 2011)
